One compound from US7687508B2, “Cyclic derivatives as modulators of chemokine receptor activity” (Bristol-Myers Squibb Company, priority 2006, dated 2010) can be followed below.

Assay [1] concerns the target T1, human CCR2 (Homo sapiens, UniProt P41597).
T1 sequence (P41597 1-360 isoform P41597-2): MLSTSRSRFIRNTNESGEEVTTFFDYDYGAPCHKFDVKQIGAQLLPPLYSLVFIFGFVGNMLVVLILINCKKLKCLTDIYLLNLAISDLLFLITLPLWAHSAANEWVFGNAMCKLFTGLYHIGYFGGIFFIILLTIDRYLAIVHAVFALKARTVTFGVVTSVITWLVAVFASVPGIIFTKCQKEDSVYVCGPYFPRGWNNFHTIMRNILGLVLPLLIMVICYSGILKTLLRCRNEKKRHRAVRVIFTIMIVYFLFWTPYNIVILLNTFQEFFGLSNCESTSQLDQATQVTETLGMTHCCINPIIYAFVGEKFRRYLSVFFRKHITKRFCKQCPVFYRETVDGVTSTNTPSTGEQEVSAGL
In words: THP-1 binding (CCR2, 125I-human MCP-1 tracer). More on the design: THP-1 human monocytic leukemic cell line, which expresses endogenous CCR2; endogenous in cells; host or cells: THP-1 human monocytic leukemia cells. To be noted: metabolite examples; THP-1 cells, 125I-MCP-1. On the procedure:
The human CCR2 binding assay was also established with the THP-1 human monocytic leukemic cell line, which expresses endogenous CCR2, using 125I-human MCP-1 as the tracer ligand. Radioligand competition binding assays were used for assessment of binding affinity of test compounds to the CCR2 receptor. For radioligand competition studies, 100 μl containing 2.5×10^5 THP-1 cells/well (in assay buffer containing 50 mM HEPES, pH7.4, 5 mM MgCl2, 1 mM CaCl2 and 0.5% BSA) were added to 96-well assay plates containing test compound in 3-fold serial dilution, with final concentrations ranging from […]. Subsequently, 50 μl ^125I-MCP-1 radioligand at a final concentration of 0.2 nM in assay buffer were added to the reaction. After a 90 minute incubation period at room temperature, the binding reaction was terminated by harvesting on GF/B filter plates (PerkinElmer Cat. No. 6005177) followed by washing with ice-cold wash buffer (50 mM HEPES, pH 7.4, 0.1% BSA, 0.5 M NaCl) to remove unbound ligand. After washing, the plate was dried for 45 minutes at 60° C. followed by addition of 40 μl MicroScint 20 scintillation fluid, sealed and analyzed by the Packard TopCount reader. […] Specific binding of 1-MCP-1 was calculated as the difference between total and non-specific binding. […] After correcting for non-specific binding, IC50 values were determined.

Assay [2] concerns the target T1, human CCR2. In words: Human peripheral blood mononuclear cell binding (CCR2 binding), 125I-human MCP-1 tracer. More on the design: hPBMCs were isolated from human leukopak (Biological Specialty Inc.); endogenous in cells; host or cells: human peripheral blood mononuclear cells from leukopak (Biological Specialty Inc.). To be noted: metabolite examples; hPBMCs, 125I-MCP-1; read-out: PBMC Binding IC50. How it is done: See also: Yoshimura et al., J. Immunol. 1990, 145, 292. The human CCR2 binding assay was established with human peripheral blood mononuclear cells (hPBMCs) using ^125I-human MCP-1 as the tracer ligand. hPBMCs were isolated from human leukopak (Biological Specialty Inc.) using a standard protocol with Ficoll-Hypaque (Mediatech Cellgro). Isolated hPBMCs were washed and diluted to 1×10^7/ml in binding buffer (RPMI-1640, 0.1% BSA, 20 mM Hepes, pH 7.4). ^125I-MCP-1 (NEN/Perk Elmer) was diluted to 0.45 nM in binding buffer. The compound was diluted in binding buffer at 3-fold the final concentrations used in the binding assay. The binding assay was performed using a 96-well filter plate (Millipore). Total ^125I-MCP-1 binding was assessed as follows: to each reaction of a total volume of 150 μl were added 5×10^5 cells, 0.15 nM […], and compound such that the final concentration ranged from 0 to 100 nM. The plate was incubated at room temperature for 30 minutes followed by three washes with RPMI-1640, 0.1% BSA, 0.4 M NaCl, 20 mM Hepes, pH 7.4 using a vacuum manifold filtration (Millipore). […] The plate was sealed and counted on the Trilux for 1 minute. Non-specific binding was determined in the presence of 300 nM cold MCP-1 (PeproTech Inc.). Specific 1-MCP-1 was calculated as the difference between total and non-specific binding. […]

Structures are written as SMILES.

Regarding `CC(=O)N[C@@H]1C[C@H](NC(C)C)CC[C@@H]1N1CC[C@H](Nc2ncnc3ccc(C(F)(F)F)cc23)C1=O` [Example 2, N-((1R,2S,5R)-5-(isopropylamino)-2-((3S)-2-oxo-3-((6-(trifluoromethyl)-4-quinazolinyl)amino)-1-pyrrolidinyl)cyclohexyl)acetamide], the values for the IC50 at human CCR2 [1] and at human CCR2 [2] were 27 nM and 15 ± 7.3 nM, respectively.

The IC50 is the concentration needed to halve the response being measured.
